The values that follow come from PubChem BioAssay AID602141 (Sanford-Burnham Center for Chemical Genomics, 2011).

Structures are written as SMILES. Only a part is listed here, and it is no random draw. Activity calls are given as the source filed them.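 Rule for the calls: active = corrected activity change at or below -50% at 5 µM; inactive = the rest.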

A short description of this experiment: KKLEB cell viability reduction – uHTS, fluorescence assay plates, cytotoxicity control for CF NF-kB inhibitor project, primary screen (AID 602141). The conditions noted are these: KKLEB CF airway cells viability, ATPlite luminescence, overnight; at 5 µM; stronger effect = lower value; cells stimulated with P. aeruginosa culture filtrate. For orientation: Cellular ATP, detected with luciferase, serves as a proxy for viable cell number.
`Cc1cc(SC(NC(=O)c2ccc(F)cc2)C(Cl)(Cl)Cl)ncn1` (stereo unspecified): the activity change (cytotoxicity) was inactive: -4.6%.
